Laboratory results from patent US9616063B2, “1-[2-(aminomethyl)benzyl]-2-thioxo-1,2,3,5-tetrahydro-4H-pyrrolo[3,2-d]pyrimidin-4-ones as inhibitors of myeloperoxidase” (AstraZeneca AB, priority 2014, dated 2017).

By UniProt entry, the sequences of proteins in these tests, tags left out.
UniProt P05164, whole entry, looked up, stated change not applied: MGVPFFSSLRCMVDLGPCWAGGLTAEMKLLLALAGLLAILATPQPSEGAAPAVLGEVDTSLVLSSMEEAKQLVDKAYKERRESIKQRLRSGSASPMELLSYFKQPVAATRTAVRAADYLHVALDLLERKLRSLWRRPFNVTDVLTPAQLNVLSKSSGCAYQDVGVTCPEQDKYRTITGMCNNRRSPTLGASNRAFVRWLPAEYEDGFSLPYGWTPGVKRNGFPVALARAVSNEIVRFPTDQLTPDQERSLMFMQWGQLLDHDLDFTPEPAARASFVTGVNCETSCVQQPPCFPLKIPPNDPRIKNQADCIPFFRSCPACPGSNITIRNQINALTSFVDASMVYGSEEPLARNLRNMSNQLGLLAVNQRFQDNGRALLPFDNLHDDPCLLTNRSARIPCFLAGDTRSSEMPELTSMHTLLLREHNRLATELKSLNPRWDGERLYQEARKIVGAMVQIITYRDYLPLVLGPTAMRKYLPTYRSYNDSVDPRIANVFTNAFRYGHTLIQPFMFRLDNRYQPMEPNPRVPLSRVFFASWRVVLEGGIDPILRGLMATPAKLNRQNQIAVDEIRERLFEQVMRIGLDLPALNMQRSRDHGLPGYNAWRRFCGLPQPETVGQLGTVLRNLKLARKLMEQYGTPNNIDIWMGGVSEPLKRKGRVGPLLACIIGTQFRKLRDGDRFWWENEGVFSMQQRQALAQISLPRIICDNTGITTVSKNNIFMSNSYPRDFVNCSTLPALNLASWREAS

Molecular target: MPO purified from the human cell line HL60 (Homo sapiens (Human), UniProt P05164)
Experiment: MPO inhibition, Test A (loss of ascorbate, absorbance at 260 nm)
Assay type: biochemical
Settings: absorbance at 260 nm 20 minutes after substrate addition
Experimental: Methods for the determination of MPO inhibitory activity are disclosed in WO 02/090575. The pharmacological activity of compounds disclosed herein was tested in the following screen (Test A) in which the compounds were tested in the presence of ascorbate, which reacts with MPO-derived hypochlorous acid (HOCl) to form dehydro-ascorbate. The loss of ascorbate is followed by measuring absorbance at 260 nm.
Assay buffer: 100 μM diethyl triamine pentaacetic acid (DTPA) in buffer consisting of 10 mM Na2HPO4/NaH2PO4, 3 mM KCl in 140 mM NaCl, pH 7.4.
Enzyme solution: MPO purified from the human cell line HL60, 1.38 nM (final concentration 0.7 nM) and L-ascorbate, 100 μM (final concentration 50 μM) in Assay buffer
Substrate solution: H2O2, 98 μM (final concentration 49 μM) Forty μL of the enzyme solution was added to 0.6 μL compound serially diluted in DMSO. Absorbance was measured at 260 nm to obtain a compound blank value. After an additional 10 min, 40 μL of the substrate solution was added and the absorbance at 260 nm was recorded between 4 and 40 min to obtain kinetic readings of enzyme activity.

Question: For `NCc1cc(Cl)ccc1Cn1c(=S)[nH]c(=O)c2[nH]ccc21` [Example 7, 1-[2-(Aminomethyl)-4-chlorobenzyl]-2-thioxo-1,2,3,5-tetrahydro-4H-pyrrolo[3,2-d]pyrimidin-4-one], which IC50 is on record?
Answer: The IC50 was 0.015 µM.
